Earlier results on one compound are cited in US6846837B2, “Topical administration of basic antifungal compositions to treat fungal infections of the nails” (priority 2002, dated 2005).

Only a part of the results on these compounds is given; other tests are left out.

The conditions of the data set: 0.1 N.

As to `OCCN(CCO)CCO`, the “pH of Aqueous Solution (concentration)” value is given as 10.5 (0.1 N).
